Results published in patent US11021457B2, “Class of isoindolone-imide ring-1,3-dione-2-ene compounds, composition and use thereof” (WIGEN BIOMEDICINE TECHNOLOGY (SHANGHAI) CO., LTD., priority 2017, dated 2021).

Columns and labels:
SU-DHL6 = assay: Inhibition of tumor cell proliferation, CellTiter-Glo, SU-DHL6; format: cell-based; conditions: compound concentration 50 μM, 72 hours
K562 = assay: Inhibition of tumor cell proliferation, CellTiter-Glo, K562; format: cell-based; conditions: compound concentration 50 μM, 72 hours
A549 = assay: Inhibition of tumor cell proliferation, CellTiter-Glo, A549; format: cell-based; conditions: compound concentration 50 μM, 72 hours
BxPC-3 = assay: Inhibition of tumor cell proliferation, CellTiter-Glo, BxPC-3; format: cell-based; conditions: compound concentration 50 μM, 72 hours
MDA-MB-453 = assay: Inhibition of tumor cell proliferation, CellTiter-Glo, MDA-MB-453; format: cell-based; conditions: compound concentration 50 μM, 72 hours
RPMI-8226 = assay: Inhibition of tumor cell proliferation, CellTiter-Glo, RPMI-8226; format: cell-based; conditions: compound concentration 50 μM, 72 hours
LC3B = LC3B (Homo sapiens (Human), UniProt Q9GZQ8); assay: Fluorescence polarization experiment targeting LC3B (GST-LC3B with FITC-labeled peptide); conditions: GST-LC3B 180 nM, FITC-labeled peptide 18 nM, 25° C.

Compound	Inhibitory activity against proliferation (cell survival rate) SU-DHL6 (SU-DHL6)	Inhibitory activity against proliferation (cell survival rate) K562 (K562)	Inhibitory activity against proliferation (cell survival rate) A549 (A549)	Inhibitory activity against proliferation (cell survival rate) BxPC-3 (BxPC-3)	Inhibitory activity against proliferation (cell survival rate) MDA-MB-453 (MDA-MB-453)	Inhibitory activity against proliferation (cell survival rate) RPMI-8226 (RPMI-8226)	IC50 (LC3B)
O=C1CCC(N2Cc3c(NC=C4C(=O)CC(c5ccnc6ccccc56)CC4=O)cccc3C2=O)C(=O)N1 (centres unmarked)	+ (60≤survival rate (%)<90)	++ (30<survival rate (%)≤60)	+ (60≤survival rate (%)<90)	+ (60≤survival rate (%)<90)	+++ (survival rate (%)≤30)	+++ (survival rate (%)≤30)	
O=C1CCC(N2C(=O)c3cccc(NCCOCCOCCOCCN4CCN(CCNC=C5C(=O)CC(c6ccccc6)CC5=O)CC4)c3C2=O)C(=O)N1 (centres unmarked)	+++ (survival rate (%)≤30)	+ (60≤survival rate (%)<90)	+++ (survival rate (%)≤30)	+ (60≤survival rate (%)<90)	+ (60≤survival rate (%)<90)	++ (30<survival rate (%)≤60)	15 to 100 µM
O=C1CCC(N2Cc3c(NC(=O)[C@H](CCCNC=C4C(=O)CC(c5ccccc5)CC4=O)NC=C4C(=O)CC(c5ccccc5)CC4=O)cccc3C2=O)C(=O)N1 (some centres unmarked)	+ (60≤survival rate (%)<90)	+++ (survival rate (%)≤30)	+++ (survival rate (%)≤30)	+ (60≤survival rate (%)<90)	+ (60≤survival rate (%)<90)	+++ (survival rate (%)≤30)	100 to 1000 µM
